Measurements: PMC5962729, “Yinchenhao Decoction Ameliorates Alpha-Naphthylisothiocyanate Induced Intrahepatic Cholestasis in Rats by Regulating Phase II Metabolic Enzymes and Transporters” (Frontiers in Pharmacology, 2018)

Experiment: Identification of components and metabolites of YCHD in rat plasma, bile, urine and feces (UHPLC/Q-TOF-MS)
Format: in vivo
Conditions: rats, oral YCHD 12 g/kg, urine, feces
Protocol: After centrifuging at 4000 rpm for 10 min, supernatant plasma was harvested into heparinized tubes and then stored at -20°C for preservation. The rats in the second group (n = 6) were kept individually in metabolic cages to collect urine and feces. […] Subsequently, the rats were orally administered a single dose of YCHD (12 g/kg of body weight). […] For the third group of rats (n = 6), bile duct intubation was implemented, and blank bile samples were collected before administration. After the administration of YCHD at 12 g/kg of body weight, the drug-containing bile samples were collected.
Plasma, bile, and urine samples (200 μL each) were separately precipitated with six times of methanol–acetonitrile mixed solution (v/v, 1:1; containing 1% formic acid). After being vortex mixed for 5 min and centrifuged at 15,000 rpm for 5 min at 4°C, the supernatant was separated into another clean tube and dried under a gentle stream of nitrogen at 45°C. Subsequently, the residue was reconstituted in 100 μL of 50% methanol–water (v/v) and then vortex mixed for 10 min. After another round of centrifugation at 15,000 rpm for 5 min at 4°C, 5 μL of the supernatant was analyzed by UHPLC-MS/MS. A 0.5 g sample of naturally dried feces was supplemented with 2 mL of 80% methanol–water (v/v) and then ultrasonically extracted for 30 min at 4°C. After being centrifuged at 15,000 rpm for 10 min, the supernatant was dried under a gentle stream of nitrogen at 45°C. Finally, the residue was reconstituted in 1 mL of 50% methanol–water (v/v) and then vortex mixed for 10 min. After another round of centrifugation at 15,000 rpm for 5 min at 4°C, 5 μL of the supernatant sample was injected into the UHPLC-MS/MS system for analysis.
Separations were conducted on an Agilent SB-C18 column (2.1 mm × 50 mm, 1.8 μm) of a UHPLC/Q-TOF-MS system (Waters, Corp., Milford, MA, United States) maintained at 40°C.
A Synapt G2 quadrupole time-of-flight (Q/TOF) MS/MS system (Waters, Corp., Manchester, United Kingdom) equipped with an electrospray ionization (ESI) interface was operated in negative ionization mode and controlled by MassLynx software (Version 4.1). The optimized conditions for maximum detection of metabolites were as follows: the capillary voltage was set at 3.0 kV, extraction cone voltage was set at 10 and 15 V, source temperature was maintained at 120°C, and desolvation temperature was maintained at 450°C. […] An MS^E approach using a dynamic ramp of collision energy was also applied at two (low and high collision energies) scan functions. […]

| Substance | Source (biological samples in which the compound was identified) |
| --- | --- |
| Rhein-O-gluA [M1] | Urine |
| Caffeic acid-O-SO3 [M4] | Urine, feces |
| Caffeic acid-O-gluA [M5] | Plasma, bile, urine |
| Emodin-O-gluA [M8] | Plasma, bile, urine, feces |
